In experiment [1] the target is T1, CRF2R (Homo sapiens, UniProt Q13324).
T1 sequence (Q13324 1-411): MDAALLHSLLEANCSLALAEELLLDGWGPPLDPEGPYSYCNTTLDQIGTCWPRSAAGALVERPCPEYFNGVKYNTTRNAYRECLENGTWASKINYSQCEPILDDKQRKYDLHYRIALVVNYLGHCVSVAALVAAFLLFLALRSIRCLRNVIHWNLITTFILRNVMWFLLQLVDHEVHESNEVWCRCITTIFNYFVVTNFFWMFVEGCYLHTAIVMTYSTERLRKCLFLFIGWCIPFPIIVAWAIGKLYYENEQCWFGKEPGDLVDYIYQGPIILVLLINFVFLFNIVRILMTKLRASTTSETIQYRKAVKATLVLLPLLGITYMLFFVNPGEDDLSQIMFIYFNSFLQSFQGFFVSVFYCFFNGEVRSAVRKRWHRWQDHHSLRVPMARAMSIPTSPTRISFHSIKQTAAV
Kind of experiment: CRF2R agonist activation (EC50 / Emax), called comparative CRF binding. It is filed as cell-based. To be noted: for Emax: read-out: CRF2R Emax. The gist of the method:
(§1)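 Read-out is Gαs-driven cAMP induction, quantified directly in lysates or through CRE-reporter gene expression, after treating CRF1R- or CRF2R-expressing cells with peptide. Vehicle-treated cells serve as the comparison.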

The target in experiment [2] is T2, CRF1R (Homo sapiens, UniProt P34998).
T2 sequence (P34998 24-415): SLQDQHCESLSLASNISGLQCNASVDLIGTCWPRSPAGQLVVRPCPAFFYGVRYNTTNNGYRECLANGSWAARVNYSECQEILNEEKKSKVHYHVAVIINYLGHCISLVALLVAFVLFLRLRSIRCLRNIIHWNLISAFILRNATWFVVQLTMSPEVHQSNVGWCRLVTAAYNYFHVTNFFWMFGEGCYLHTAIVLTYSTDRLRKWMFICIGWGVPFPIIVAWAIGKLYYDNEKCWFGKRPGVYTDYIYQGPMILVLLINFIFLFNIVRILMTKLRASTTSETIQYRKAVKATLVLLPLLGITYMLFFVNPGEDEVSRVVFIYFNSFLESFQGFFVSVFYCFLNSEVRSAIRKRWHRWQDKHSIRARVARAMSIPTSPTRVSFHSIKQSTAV
Nature of the experiment: CRF1R agonist activation (EC50 / Emax), called comparative CRF binding. It is filed as cell-based. As to conditions: for EC50: CRF1R EC50; for Emax: read-out: CRF1R Emax. The gist of the method: as §1

The term EC50 denotes the concentration giving half of the maximal effect. For orientation: Emax means the greatest response seen or fitted, relative to the assay's reference.

Take `CC[C@H](C)[C@H](NC(=O)[C@@H](NC(=O)[C@H](C)NC(=O)[C@H](CC(C)C)NC(=O)[C@H](CC(C)C)NC(=O)[C@H](CC(C)C)NC(=O)[C@H](C)NC(=O)[C@H](CC(N)=O)NC(=O)[C@H](CC(N)=O)NC(=O)[C@H](C)NC(=O)[C@H](C)NC(=O)[C@H](CCC(N)=O)NC(=O)[C@H](CCC(N)=O)NC(=O)[C@H](CCCCN)NC(=O)[C@H](CCC(=O)O)NC(=O)[C@H](CCCCN)NC(=O)[C@H](CCC(=O)O)NC(=O)[C@H](CCC(N)=O)NC(=O)[C@H](CCCCN)NC(=O)[C@H](CCC(=O)O)NC(=O)[C@@H](NC(=O)[C@H](CCC(=O)O)NC(=O)[C@@H](NC(=O)[C@@H](NC(=O)[C@H](CCCCN)NC(=O)[C@H](CCCNC(=N)N)NC(=O)[C@H](CC(C)C)NC(=O)[C@H](CC(C)C)NC(=O)[C@H](CCC(N)=O)NC(=O)[C@H](CC(C)C)NC(=O)[C@@H]1CCCN1C(=O)[C@H](CC(C)C)NC(=O)[C@H](CC(=O)O)NC(=O)[C@@H](NC(=O)[C@H](CO)NC(=O)[C@@H](NC(=O)[C@@H]1CCCN1C(=O)[C@@H]1CCCN1C(=O)CNC(=O)[C@@H]1CCC(=O)N1)[C@@H](C)CC)[C@@H](C)CC)C(C)C)[C@@H](C)CC)[C@@H](C)CC)[C@@H](C)O)C(N)=O` [compound 349]: in experiment [1], the EC50 turned out to be 13.7 nM and the Emax is 100%. In experiment [2], the EC50 was ≥ 1000 nM and the maximal response (Emax) was determined as 44.2%.
For `CC[C@H](C)[C@H](NC(=O)[C@@H](NC(=O)[C@H](C)NC(=O)[C@H](CC(C)C)NC(=O)[C@H](CC(C)C)NC(=O)[C@H](CC(C)C)NC(=O)[C@H](C)NC(=O)[C@H](CC(N)=O)NC(=O)[C@H](CC(N)=O)NC(=O)[C@H](C)NC(=O)[C@H](C)NC(=O)[C@H](CCC(N)=O)NC(=O)[C@H](CCC(N)=O)NC(=O)[C@H](CCCCN)NC(=O)[C@H](CCC(=O)O)NC(=O)[C@H](CCCCN)NC(=O)[C@H](CCC(=O)O)NC(=O)[C@H](CCC(N)=O)NC(=O)[C@H](CCCCN)NC(=O)[C@H](CCC(=O)O)NC(=O)[C@@H](NC(=O)[C@H](CCC(=O)O)NC(=O)[C@@H](NC(=O)[C@H](CCSC)NC(=O)[C@H](CCCCN)NC(=O)[C@H](CCCNC(=N)N)NC(=O)[C@H](CC(C)C)NC(=O)[C@H](CC(C)C)NC(=O)[C@H](Cc1c[nH]cn1)NC(=O)[C@H](CC(C)C)NC(=O)[C@@H]1CCCN1C(=O)[C@H](CC(C)C)NC(=O)[C@H](CC(=O)O)NC(=O)[C@@H](NC(=O)[C@H](CO)NC(=O)[C@@H](NC(=O)[C@@H]1CCCN1C(=O)[C@@H]1CCCN1C(=O)CNC(=O)[C@@H]1CCC(=O)N1)[C@@H](C)CC)[C@@H](C)CC)[C@@H](C)CC)[C@@H](C)CC)[C@@H](C)O)C(N)=O` [compound 241], the maximum response (Emax) in experiment [1] and in experiment [2] was 99% in each case.
On to `CC[C@H](C)[C@H](NC(=O)[C@H](CCCNC(=N)N)NC(=O)[C@H](C)NC(=O)[C@H](CC(C)C)NC(=O)[C@H](CC(C)C)NC(=O)[C@H](CCCNC(=N)N)NC(=O)[C@H](C)NC(=O)[C@H](CC(N)=O)NC(=O)[C@H](CC(N)=O)NC(=O)[C@H](C)NC(=O)[C@H](C)NC(=O)[C@H](CCC(N)=O)NC(=O)[C@H](CCC(N)=O)NC(=O)[C@H](CCCCN)NC(=O)[C@H](CCC(=O)O)NC(=O)[C@H](CCCCN)NC(=O)[C@H](CCC(=O)O)NC(=O)[C@H](CCC(N)=O)NC(=O)[C@H](CCCCN)NC(=O)[C@H](CCC(=O)O)NC(=O)[C@@H](NC(=O)[C@H](CCC(=O)O)NC(=O)[C@@H](NC(=O)[C@@H](NC(=O)[C@H](CCCCN)NC(=O)[C@H](CCCNC(=N)N)NC(=O)[C@H](CC(C)C)NC(=O)[C@H](CC(C)C)NC(=O)[C@H](CCC(N)=O)NC(=O)[C@H](Cc1ccc(O)cc1)NC(=O)[C@@H]1CCCN1C(=O)[C@H](CC(C)C)NC(=O)[C@H](CC(=O)O)NC(=O)[C@@H](NC(=O)[C@H](CO)NC(=O)[C@@H](NC(=O)[C@@H]1CCCN1C(=O)[C@@H]1CCCN1C(=O)CNC(=O)[C@@H]1CCC(=O)N1)[C@@H](C)CC)[C@@H](C)CC)C(C)C)[C@@H](C)CC)[C@@H](C)CC)C(N)=O` [compound 286], for which, in experiment [1], the EC50 came out at 13.5 nM and the Emax was 92.5%. For the same compound, in experiment [2], the EC50 was ≥ 1000 nM and the maximal effect (Emax) worked out at 19.2%.
`CC[C@H](C)[C@H](NC(=O)[C@@H](NC(=O)[C@H](CC(=O)O)NC(=O)[C@H](CC(C)C)NC(=O)[C@H](CC(C)C)NC(=O)[C@H](CC(C)C)NC(=O)[C@H](CCCNC(=N)N)NC(=O)[C@H](CC(N)=O)NC(=O)[C@H](CC(N)=O)NC(=O)[C@H](C)NC(=O)[C@H](C)NC(=O)[C@H](CCC(N)=O)NC(=O)[C@H](CCC(N)=O)NC(=O)[C@H](CCCCN)NC(=O)[C@H](CCC(=O)O)NC(=O)[C@H](CCCCN)NC(=O)[C@H](CCC(=O)O)NC(=O)[C@H](CCC(N)=O)NC(=O)[C@H](CCCCN)NC(=O)[C@H](CCC(=O)O)NC(=O)[C@@H](NC(=O)[C@H](CCC(=O)O)NC(=O)[C@@H](NC(=O)[C@H](CCSC)NC(=O)[C@H](CCCCN)NC(=O)[C@H](CCCNC(=N)N)NC(=O)[C@H](CC(C)C)NC(=O)[C@H](CC(C)C)NC(=O)[C@H](CC(C)C)NC(=O)[C@@H](NC(=O)[C@@H]1CCCN1C(=O)[C@H](CC(C)C)NC(=O)[C@H](CC(=O)O)NC(=O)[C@@H](NC(=O)[C@H](CO)NC(=O)[C@@H](NC(=O)[C@@H]1CCCN1C(=O)[C@@H]1CCCN1C(=O)CNC(=O)[C@@H]1CCC(=O)N1)[C@@H](C)CC)[C@@H](C)CC)[C@@H](C)O)[C@@H](C)CC)[C@@H](C)CC)[C@@H](C)O)C(N)=O` [compound 51]: the Emax in experiment [1] amounted to 100%; in experiment [2], 48%.
Turning to `CC[C@H](C)[C@H](NC(=O)[C@@H](NC(=O)[C@H](CC(=O)O)NC(=O)[C@H](CC(C)C)NC(=O)[C@H](CC(C)C)NC(=O)[C@H](CC(C)C)NC(=O)[C@H](CCCNC(=N)N)NC(=O)[C@H](CC(N)=O)NC(=O)[C@H](CC(N)=O)NC(=O)[C@H](C)NC(=O)[C@H](C)NC(=O)[C@H](CCC(N)=O)NC(=O)[C@H](CCC(N)=O)NC(=O)[C@H](CCCCN)NC(=O)[C@H](CCC(=O)O)NC(=O)[C@H](CCCCN)NC(=O)[C@H](CCC(=O)O)NC(=O)[C@H](CCC(N)=O)NC(=O)[C@H](CCCCN)NC(=O)[C@H](CCC(=O)O)NC(=O)[C@@H](NC(=O)[C@H](CCC(=O)O)NC(=O)[C@@H](NC(=O)[C@H](CCSC)NC(=O)[C@H](CCCCN)NC(=O)[C@H](CCCNC(=N)N)NC(=O)[C@H](CC(C)C)NC(=O)[C@H](CC(C)C)NC(=O)[C@H](CC(C)C)NC(=O)[C@H](Cc1ccc(O)cc1)NC(=O)[C@@H]1CCCN1C(=O)[C@H](CC(C)C)NC(=O)[C@H](CC(=O)O)NC(=O)[C@@H](NC(=O)[C@H](CO)NC(=O)[C@@H](NC(=O)[C@@H]1CCCN1C(=O)[C@@H]1CCCN1C(=O)CNC(=O)[C@@H]1CCC(=O)N1)[C@@H](C)CC)[C@@H](C)CC)[C@@H](C)CC)[C@@H](C)CC)[C@@H](C)O)C(N)=O` [compound 203], in experiment [1], the midpoint of the response, the EC50, lay at 5.2 nM and the maximal effect (Emax) worked out at 94%. Further, in experiment [2], the EC50 was 76.2 nM and the Emax amounted to 86%.
On to `CC[C@H](C)[C@H](NC(=O)[C@@H](NC(=O)[C@H](C)NC(=O)[C@H](CC(C)C)NC(=O)[C@H](CC(C)C)NC(=O)[C@H](CC(C)C)NC(=O)[C@H](C)NC(=O)[C@H](CC(N)=O)NC(=O)[C@H](CC(N)=O)NC(=O)[C@H](C)NC(=O)[C@H](C)NC(=O)[C@H](CCC(N)=O)NC(=O)[C@H](CCC(N)=O)NC(=O)[C@H](CCCCN)NC(=O)[C@H](CCC(=O)O)NC(=O)[C@H](CCCCN)NC(=O)[C@H](CCC(=O)O)NC(=O)[C@H](CCC(N)=O)NC(=O)[C@H](CCCCN)NC(=O)[C@H](CCC(=O)O)NC(=O)[C@@H](NC(=O)[C@H](CCC(=O)O)NC(=O)[C@@H](NC(=O)[C@@H](NC(=O)[C@H](CCCCN)NC(=O)[C@H](CCCNC(=N)N)NC(=O)[C@H](CC(C)C)NC(=O)[C@H](CC(C)C)NC(=O)[C@@H](NC(=O)[C@H](CCC(N)=O)NC(=O)[C@@H]1CCCN1C(=O)[C@H](CC(C)C)NC(=O)[C@H](CC(=O)O)NC(=O)[C@@H](NC(=O)[C@H](CO)NC(=O)[C@@H](NC(=O)[C@@H]1CCCN1C(=O)[C@@H]1CCCN1C(=O)CNC(=O)[C@@H]1CCC(=O)N1)[C@@H](C)CC)[C@@H](C)CC)[C@@H](C)CC)C(C)C)[C@@H](C)CC)[C@@H](C)CC)[C@@H](C)O)C(N)=O` [compound 299], for which the Emax is 71.5% in experiment [1] and 10.2% in experiment [2].

These data come from patent US6936585B2, “Corticotropin releasing factor 2 receptor agonists” (priority 2002, dated 2005).
